Our source for the Ratio Ki values is ChEMBL document CHEMBL1152837, “Ligand binding to nucleic acids and proteins: Does selectivity increase with strength?” (Eur J Med Chem, 2008).

Assay type in all cases: cell membranes
The species named for assay [1] is Rattus norvegicus. Briefly: Ratio of Ki for kappa opioid receptor in rat brain membrane to Ki for mu opioid receptor in rat brain membrane.
The species named for assay [2] is Rattus norvegicus. Briefly: Ratio of Ki for delta opioid receptor in rat brain membrane to Ki for mu opioid receptor in rat brain membrane.
Assay [3] is filed under the species Rattus norvegicus. In words: Ratio of Ki for mu opioid receptor in rat brain membrane to Ki for delta opioid receptor in rat brain membrane.

Consider `Oc1ccc2c3c1O[C@H]1c4[nH]c5ccccc5c4C[C@@]4(O)[C@@H](C2)N(CC2CC2)CC[C@]314` [NALTRINDOLE], for which the Ratio Ki in the assay filed under Rattus norvegicus [1] is 1.1; in the assay listed under Rattus norvegicus [2] it was 0.008; in the assay listed under Rattus norvegicus [3], 120.
